Values quoted from earlier work in US20260207713A1, “Drug Combination Kit for Controlling Blood Sugar” (Ningbo Y Biotechology lnc., priority 2023, published 2026).

Conditions: ranks first among the top ten drugs causing adverse events; cited from earlier work

Question: For insulin, which “Incidence rate of adverse events” value is on record?
Answer: 8%
